Compound activity deposited in PubChem BioAssay by Broad Institute.
Hits are enriched below; roughly 1.3% of the tested compounds scored in any of these assays.
EWS-Fli block = blocks EWS/Fli oncoprotein-driven transcription; actives 0.67% (n = 350,000); A673 NR0B1-luciferase reporter, viability-normalised; inhibition, % at 12.6 µM;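 active = mean inhibition of at least 50% after viability correction, with every replicate also passing that limit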;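 also: firefly luciferase signal divided by Alamar Blue viability fluorescence both relative to DMSO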
UUG fidelity = alters start codon recognition fidelity in yeast | S. cerevisiae UUG-firefly luciferase reporter, luminescence/redox ratio | activity score, % at 18.7 µM | hit rate 0.13% among 350,000 | AID 602363;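 active means replicate mean at a twofold rise or more, about +100% in these data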;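 further: firefly luciferase made from a UUG start codon reports start codon fidelity; reporter light over untreated wells divided by growth signal over untreated wells; some hits fall short of that in this replicate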
CFTR F508del cor = CFTR F508del correction in bronchial cells; activity (quench increase), % at 7.58 µM; actives 0.36% (n = 350,000); AID 720511; CFBE cells, YFP halide quenching; stimulated with forskolin plus potentiator P3; % fluorescence drop versus neutral controls;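 active = mean added fluorescence quench of at least 8% versus neutral control, with both replicates also reaching 8%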;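 also: cells transiently co-express mutant CFTR-F508del with the halide-sensitive YFP; corrector assay measuring rescue of mutant channel to the surface after 24 h compound exposure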
miR122 inh = miR-122 inhibition in Huh7 cells | actives 0.3% (n = 340,000) | AID 602342 | Huh7 miR-122 Renilla luciferase sensor, 48 h; neutral wells = 0, positive control = 100 | activation (reporter increase), % at 12.5 µM;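 active = mean replicate activation score at least 90 and every replicate individually at or above 90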;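 also: higher luciferase means less miR-122 activity so hits act as miR-122 inhibitors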
PglD inh = inhibitors of Campylobacter jejuni PglD acetyltransferase. purified PglD enzyme, DTNB colorimetric CoA detection. inhibition, % at 12.5 µM. actives 0.098% (n = 360,000); in the data active = inhibition above about 16%, passing the limit was not always enough
LGR2 inh = blocks bursicon-induced cAMP signaling via Drosophila LGR2; inhibition, % at 9.99 µM; HEK293 LGR2, CRE-luciferase, bursicon-stimulated, 4 h; actives 0.35% (n = 380,000);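 active = drop in luminescence signal, shown as inhibition above about 50% in the replicate tests, limit read from the data, passing the limit was not always enough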;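 also: agonist challenge used bursicon conditioned medium at about half maximal strength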
DNA binding = DNA binding small molecules. shares compounds with EWS-Fli block. salmon sperm DNA acridine orange fluorescence polarization. AC35, µM (series often up to 68 µM), for the others: top-dose activity change, negative = DNA binding. actives 2% (n = 640). AID 720586;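 active = fitted curve reaches a 35% signal fall AC35 below twice the sample's top valid tested dose, actives reach about 48 µM in these data; inactive = the rest, including activity in the rising direction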;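 also: lower polarization ratio signals compound binding to DNA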
Active calls of the source: *; x = not tested or not shown; ! = repeats disagree; [ ] = another dose, or the depositor's remark.

1: CC(=NNc1cc(C)c2ccccc2n1)c1ccccn1
2: COc1ccc(N(C)S(=O)(=O)c2cccc(C(=O)NC3=NCCS3)c2)cc1
3: C=C1C(=O)[C@@]23[C@H](O)C[C@@H]4C(C)(C)CC[C@H](O)[C@@]4(C)[C@@H]2CC[C@@H]1[C@H]3O
4: C=C1C(=O)[C@@]23[C@H](O)C[C@@H]4C(C)(C)CC[C@H](O)[C@]4(C)[C@@H]2C[C@H](O)[C@@H]1[C@H]3O
5: CCN1/C(=C/C(C)=C/c2sc3ccccc3[n+]2CC)Sc2ccccc21
6: CCN1/C(=C\C(=S)Nc2ccccc2)Sc2ccccc21
Compound	1	2	3	4	5	6
EWS-Fli block	64*	x	60*	1	78*!	-62
UUG fidelity	x	-3	-11	-10	66	-36
CFTR F508del cor	6	x	-12	-7	-13	3
miR122 inh	x	-15	x	x	-27	3
PglD inh	x	-2	8	3	-7	-2
LGR2 inh	-11	x	59*	35	110*!	x
DNA binding	-2%	x	-9%	x	2.2µM*	x

7: N#CC1C=Cc2c(ccc3ccccc23)N1C(=O)c1ccccc1 (configuration not stated)
8: N#CC1C=Cc2ccccc2N1C(=O)c1ccccc1 (configuration not stated)
9: CCCN1C(=O)/C(=C/c2ccc3c(c2)OCO3)NC1=S
10: CCCN1C/C(=C/c2ccc3c(c2)OCO3)C(=O)/C(=C/c2ccc3c(c2)OCO3)C1
11: Cc1ccc(N=C2NC(=O)/C(=C\c3cccs3)S2)cc1C
12: C/C(=C/c1ccccc1)C(=O)N1CCC(C)CC1
Compound	7	8	9	10	11	12
EWS-Fli block	66*	9	-5	64*	58*	-18
UUG fidelity	x	-21	x	6	x	-4
CFTR F508del cor	0	-1	-1	x	x	0
miR122 inh	x	13	x	22	x	-2
PglD inh	x	2	x	-8	x	3
LGR2 inh	-60	4	-5	-14	-31	-2
DNA binding	-3%	x	x	-19%	2%	x

13: C/C(=C\c1ccccc1)C(=O)N1CCC=CC1=O
14: O=C(C[C@@H]1CC[C@@H]2[C@H](COC[C@@H](O)CN2S(=O)(=O)c2ccc(F)cc2)O1)NCc1ccc(Cl)c(Cl)c1
15: O=C(Nc1ccc2c(c1)OCO2)N1C[C@@H]2N[C@H](C1)C2c1ccc(C=Cc2ccccc2)cc1 (some centres not stated)
16: CN(C)CC(=O)N1C[C@@H]2N[C@H](C1)C2c1ccc(/C=C/c2ccccc2)cc1 (some centres not stated)
17: O=C(C1CC1)N1C[C@@H]2N[C@H](C1)C2c1ccc(/C=C/c2ccccc2)cc1 (some centres not stated)
18: CN(C)c1ccc(C=c2c3ccccc3n3c2c2c([n+]3C)CCCC2)cc1
Compound	13	14	15	16	17	18
EWS-Fli block	55*	76*	65*!	14	53*!	53*
UUG fidelity	x	-5	x	x	x	x
CFTR F508del cor	3	-1	-7	-7	1	2
miR122 inh	x	29[16.7 µM]	x	x	x	-17
PglD inh	x	-4	x	x	x	x
LGR2 inh	x	19	16	-20	3	32*
DNA binding	-3%	-16%	-5%	x	5%	6.5µM*

Next section, starting with the last 4 of the part before.
15: O=C(Nc1ccc2c(c1)OCO2)N1C[C@@H]2N[C@H](C1)C2c1ccc(C=Cc2ccccc2)cc1 (some centres not stated)
16: CN(C)CC(=O)N1C[C@@H]2N[C@H](C1)C2c1ccc(/C=C/c2ccccc2)cc1 (some centres not stated)
17: O=C(C1CC1)N1C[C@@H]2N[C@H](C1)C2c1ccc(/C=C/c2ccccc2)cc1 (some centres not stated)
18: CN(C)c1ccc(C=c2c3ccccc3n3c2c2c([n+]3C)CCCC2)cc1
19: CN(C)c1ccc(/C=C2\CCC/C(=C\c3ccccc3)C2=O)cc1
20: COCC#Cc1cnc2c(c1)C(=O)N([C@@H](C)CO)C[C@H](C)[C@@H](CN(C)S(=O)(=O)c1cccc(OC)c1)O2
21: COc1cc(OC)cc(-c2cc3nc(C)c(CCC(=O)O)c(C)n3n2)c1
22: CCOC(=O)C1CCCCN1C(=O)CCc1c(C)nc2cc(-c3ccccc3)nn2c1C (configuration not stated)
23: CC12CCC(=O)C=C1C(O)CC1C2CCC2(C)C1CCC2(O)C(=O)CO (configuration not stated)
24: Nc1ccc(-c2nc3ccccc3s2)cn1
Compound	15	16	17	18	19	20	21	22	23	24
EWS-Fli block	65*!	14	53*!	53*	-9	7	77*	51*	-4	-85
UUG fidelity	x	x	x	x	-15	18	-15	-5	x	-6
CFTR F508del cor	-7	-7	1	2	x	3	-2	2	-1	-1
miR122 inh	x	x	x	-17	18	3[16.7 µM]	1	1	3	-1
PglD inh	x	x	x	x	-1	1	-1	-3	x	-2
LGR2 inh	16	-20	3	32*	-39	-10	4	-44	2	-78
DNA binding	-5%	x	5%	6.5µM*	x	x	44µM*	-5%	x	x

25: Cc1cc(-c2nc3ccccc3s2)ccc1N
26: OCC1OC(n2cnc3c(NCc4ccco4)ncnc32)C(O)C1O (configuration not stated)
27: C=CCNc1ncnc2c1ncn2C1OC(CO)C(O)C1O (configuration not stated)
28: OC[C@H]1O[C@@H](n2cnc3c(NCc4ccco4)ncnc32)[C@H](O)[C@@H]1O
29: OC[C@H]1O[C@@H](n2cnc3c(NC4CCCC4)ncnc32)[C@H](O)[C@@H]1O
30: CC(C)(C)[S@](=O)N1Cc2cc(C(=O)N3CCOCC3)nc(-c3cccc(C4=CCCC4)c3)c2[C@@H]1CCO
Compound	25	26	27	28	29	30
EWS-Fli block	61*	76*	x	80*	-12	-15
UUG fidelity	x	x	-7	5	-11	x
CFTR F508del cor	-3	x	x	-3	-1	0
miR122 inh	-1	x	0	-10	-7	x
PglD inh	x	x	2	-3	3	x
LGR2 inh	54*	-4	x	-14	x	x
DNA binding	-11%	-13%	x	-10%	x	x

31: N/C(Cc1nc(-c2ccc(F)cc2)cs1)=N\O
32: COC(=O)COc1ccc(-c2nccc(-c3ccccn3)n2)cc1
33: COC(=O)COc1ccc(-c2nccc(-c3ccc(Br)cc3)n2)cc1
34: CCC(=O)OC1(C(=O)CCl)[C@@H](C)C[C@H]2[C@@H]3CCC4=CC(=O)C=C[C@]4(C)[C@@]3(F)[C@@H](O)C[C@@]21C (some centres not stated)
35: N#Cc1ccccc1OCCCNC1CCCC1
36: COC(=O)C[C@H]1CC[C@H]2[C@@H](COc3ccc(NC(=O)c4ccc(F)cc4)cc3C(=O)N2C)O1
Compound	31	32	33	34	35	36
EWS-Fli block	77*	54*	18	-9	5	x
UUG fidelity	-9	-19	-16	11	x	x
CFTR F508del cor	1	-1	-4	-6	0	0
miR122 inh	-2	1	x	12	x	x
PglD inh	8	-3	1	-4	x	x
LGR2 inh	-20	-22	-3	-7	2	5
DNA binding	-6%	4%	x	x	x	x

37: COC(=O)C[C@@H]1CC[C@@H]2[C@H](COc3ccc(NC(=O)c4ccc(F)cc4)cc3C(=O)N2C)O1
38: COC(=O)C[C@@H]1CC[C@@H]2[C@H](COc3ccc(NC(=O)c4cc(F)cc(F)c4)cc3C(=O)N2C)O1
39: COC(=O)C[C@@H]1CC[C@@H]2[C@H](COc3ccc(NC(=O)c4ccccc4)cc3C(=O)N2C)O1
40: Cc1ccc2[nH]c(O)c(N=NC(=O)CCc3ccccc3)c2c1Br
41: Cc1ccc(C2(C)NC(=O)N(CC(=O)NCc3ccccc3Cl)C2=O)cc1 (configuration not stated)
42: O=C(CSc1nnc(-c2ccco2)n1-c1ccccc1Cl)Nc1cccc(C(=O)O)c1
Compound	37	38	39	40	41	42
EWS-Fli block	57*	61*	58*	8	11	6
UUG fidelity	11	10	-2	-6	5	0
CFTR F508del cor	-1	1	2	1	0	0
miR122 inh	-10[16.7 µM]	-33[16.7 µM]	1[16.7 µM]	3	-1	-2
PglD inh	-1	-5	11	1	7	1
LGR2 inh	8	-17	1	-10	2	9
DNA binding	11%	-5%	-6%	x	x	x
